E-sel inducer – induces E-selectin expression in human endothelial cells. HUVEC E-selectin immunofluorescence imaging; normalized: neutral wells 0, TNF-alpha wells 100. activation, % at 7.58 µM. 0.37% of 260,000 active;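 active means mean E-selectin-positive cell signal at least 10% of the positive control, reached in at least 60% of replicates, without over 20% cell loss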
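Assay system: HUVEC primary endothelial cells. Input: 3,000 HUVEC seeded per well. Doses: one compound dose added by pin transfer. Read-out basis: % PE-positive cells. Benchmarks: TNF-alpha high, DMSO low. Detection: immunofluorescence imaging. Buffer or medium: EGM-2, gelatin.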
RAD52 anneal inh – blocks human RAD52 DNA annealing. 0.46% of 360,000 active. recombinant RAD52 DNA annealing, FRET fluorescence. inhibition, % at 18.7 µM;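 active means every replicate showing at least 50% inhibition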
MLL AF4-AF9 inh – inhibitors of human MLL-AF4/AF9 interaction; P42568; AlphaScreen, biotin-AF4 peptide binding to FLAG-AF9; inhibition, % at 10 µM; 0.47% of 350,000 active;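 active means every replicate reaching a set inhibition limit, whatever the replicate mean, cut at about 25% in these data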
RAD54 branch – inhibitors of human RAD54 branch migration; inhibition, % at 10.4 µM; RAD54 Holliday junction branch migration, FAM/BHQ fluorescence; 0.14% of 360,000 active;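 active means mean normalized replicate activity at least 40 and at least half of replicates scoring 40 or more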;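 further: inhibitors cause a drop in the FAM fluorescence signal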
Yeast UUG start – modulators of yeast start codon fidelity, primary screen, whole organism, S. cerevisiae, single point, plate reader | AID 602363, 2012 | S. cerevisiae UUG-firefly luciferase reporter, luminescence/redox ratio | activity score, % at 18.7 µM | hit rate 0.13% among 350,000;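 active = replicate mean at a twofold rise or more, about +100% in these data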;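 also: firefly luciferase made from a UUG start codon reports start codon fidelity; reporter light over untreated wells divided by growth signal over untreated wells; some hits fall short of that in this replicate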
SIRT5 block – sirtuin-5 (human) deacylase inhibition; Q9NXA8; Purified SirT5, succinyl-peptide AMC, trypsin-coupled fluorescence; inhibition, % at 15 µM; 1.1% of 330,000 active; in the data active means inhibition above about 15%
Of the large screens only hits and unclear results are named; the others gave an inactive call. A selection: hits, their analogues and other compounds. The true share with any hit is near 1.8%.

C[C@@H]1CN([C@@H](C)CO)C(=O)c2c(c3ccccc3n2C)-c2ccccc2CO[C@H]1CN(C)S(=O)(=O)c1cn(C)cn1	none (no result: Yeast UUG start)
CN(Cc1ccsc1)C(=O)CCc1nnc(CCCc2ccccc2)o1	E-sel inducer 27.3
CC1=CC(C)(C)N2C(=O)C(=O)c3cc(OC(=O)c4ccco4)cc1c32	MLL AF4-AF9 inh 30.9 (no result: E-sel inducer, RAD54 branch, Yeast UUG start)
COc1ccc(C(=O)N2c3ccccc3C=CC2C#N)cc1 (stereo not given)	E-sel inducer 91.1 (no result: RAD54 branch, Yeast UUG start)
C/C=C/c1cnc2c(c1)C(=O)N([C@@H](C)CO)C[C@H](C)[C@H](CN(C)S(=O)(=O)c1ccccc1)O2	none
COc1cccc(C(=O)Nc2ccc3c(c2)OC[C@H](C)N(C)C[C@H](C)[C@H](OC)CN(C)C3=O)c1	none (no result: RAD52 anneal inh, MLL AF4-AF9 inh, RAD54 branch, Yeast UUG start, SIRT5 block)
C[C@H]1CN([C@@H](C)CO)C(=O)c2cc(C3=CCCCC3)cnc2O[C@@H]1CN(C)C(=O)c1ccccc1	none
CCn1c(N2CCN(S(=O)(=O)CC)CC2)nc2ccccc21	none (no result: E-sel inducer, RAD54 branch, Yeast UUG start)
CCCS(=O)(=O)N1CCn2c(nc3ccccc32)C1	SIRT5 block 15.4 (no result: E-sel inducer)
Cc1ccc(N=C2NC(=O)/C(=C/c3cn(C)c4ccccc34)S2)cc1C	SIRT5 block 26.2 (no result: RAD54 branch, Yeast UUG start)
Cn1cccc1/C=C1\SC(=Nc2cccc(O)c2)NC1=O	MLL AF4-AF9 inh 25.1 (no result: E-sel inducer)
C[C@@]12C(=O)N(c3cccc(Cl)c3)C(=O)N1[C@@H]1c3ccccc3OC[C@@H]1[C@H]2c1ccccc1	MLL AF4-AF9 inh 42.8 (no result: SIRT5 block)
C[C@]12C(=O)N(c3cccc(Cl)c3)C(=O)N1[C@H]1c3ccccc3OC[C@@H]1[C@H]2c1ccccc1	none (no result: E-sel inducer, RAD52 anneal inh, MLL AF4-AF9 inh, SIRT5 block)
CCCC(=O)Nc1ccc2c(c1)C(=O)N(C)C[C@@H](OC)[C@H](C)CN(C(=O)CN(C)C)[C@H](C)CO2	none
COc1ccc(C2CC(c3ccc4ccccc4c3)=NN2C(=O)CNC2CCCCC2)cc1 (stereo not given)	MLL AF4-AF9 inh 28.2
COc1ccc(C2CC(c3cccs3)=NN2C(=O)CN2CCCCC2)cc1 (stereo not given)	SIRT5 block 32.6 (no result: E-sel inducer, RAD54 branch, Yeast UUG start)
COc1ccc(C2=NN(C(=O)CCC(=O)O)C(c3ccc(OC)cc3)C2)cc1 (stereo not given)	SIRT5 block 21.4 (no result: E-sel inducer)
C[C@@H]1CN([C@H](C)CO)C(=O)c2cc(C3=CCCCC3)cnc2O[C@@H]1CN(C)C(=O)Nc1cccc(F)c1	none
CCc1ccccc1Nc1nc(N)nc(CSCC(=O)Nc2ccc(C)c(C)c2)n1	SIRT5 block 15.7 (no result: E-sel inducer)
Cc1cccc(NC(=O)Nc2ccccn2)c1C	none
Cc1ccc(C(NC(=O)Nc2ccccn2)C(Cl)(Cl)Cl)cc1F (stereo not given)	E-sel inducer 41.6 (no result: RAD54 branch, Yeast UUG start)
COc1ccc(-c2nc3cc(C)c(Br)c(C)n3c2Cc2ccc(C)cc2)cc1OC	none
COc1ccc(-c2nc3cc(C)c(Br)c(C)n3c2CC(C)(C)C)cc1OC	E-sel inducer 177.4
O=C(/C(=N/N=C/c1ccc(O)c(O)c1)c1ccccc1)c1ccccc1	MLL AF4-AF9 inh 35.5
Oc1ccc(/C=N/N=C/c2ccc(O)c(O)c2)cc1O	none
C[C@H]1CN([C@@H](C)CO)C(=O)c2cccc(NS(=O)(=O)c3cccs3)c2O[C@H]1CN(C)Cc1ccc(Cl)c(Cl)c1	none
CCCNC(=O)C[C@H]1CC[C@@H]2[C@H](COc3ccc(NC(=O)Nc4ccccc4)cc3C(=O)N2C)O1	none (no result: RAD52 anneal inh, MLL AF4-AF9 inh, SIRT5 block)
CN1CCCCN2[C@H](CO)[C@@H](c3ccc(C#Cc4ccccc4F)cc3)[C@@H]2C1	RAD52 anneal inh 68.8
CN1CCCCN2[C@@H](CO)[C@@H](c3ccc(C#Cc4ccccc4F)cc3)[C@@H]2C1	RAD52 anneal inh 70.8
O=C1C=CC(=O)c2c(O)c(CO)c(CO)c(O)c21	SIRT5 block 15.5 (no result: E-sel inducer, RAD54 branch, Yeast UUG start)
O=C(NNc1ccccc1)C(CCO)C(=O)NNc1ccccc1	SIRT5 block 111.9 (no result: E-sel inducer, RAD54 branch, Yeast UUG start)
CC(O)CC(C(=O)NNc1ccccc1)C(=O)NNc1ccccc1 (stereo not given)	none (no result: E-sel inducer, RAD54 branch, Yeast UUG start)
COCC(=O)Nc1ccc2c(c1)[C@H]1C[C@@H](CC(=O)NCc3ccncc3)O[C@H](CO)[C@H]1O2	none
CCOc1ccc2nc(NC(=O)CS(=O)(=O)c3ccc(C)cc3)sc2c1	SIRT5 block 31.6 (no result: E-sel inducer, MLL AF4-AF9 inh)
CCOc1ccc2nc(NC(=O)CS(=O)(=O)c3ccccc3)sc2c1	none (no result: E-sel inducer, RAD52 anneal inh, MLL AF4-AF9 inh, SIRT5 block)
C[C@@H]1CCCCO[C@H](CN(C)S(=O)(=O)c2ccc(F)cc2)[C@@H](C)CN([C@@H](C)CO)C(=O)c2cc(NS(=O)(=O)c3ccccc3)ccc2O1	SIRT5 block 16.9
C[C@@H]1CCCCO[C@@H](CN(C)S(=O)(=O)c2ccc(F)cc2)[C@@H](C)CN([C@@H](C)CO)C(=O)c2cc(NS(=O)(=O)c3ccccc3)ccc2O1	SIRT5 block 16.2
C[C@@H]1CN([C@@H](C)CO)C(=O)c2cc(NC(=O)Cn3cnnn3)ccc2O[C@@H]1CN(C)C(=O)Nc1ccc2c(c1)OCO2	none
CC(=O)N1CC2(C1)[C@H](c1ccc(-c3cccc(F)c3)cc1)[C@H](CO)N2CC1CC1	none (no result: RAD54 branch, Yeast UUG start, SIRT5 block)
O=C(Nc1cc(F)ccc1F)N[C@H]1C=C[C@H](CC(=O)N2CCc3ccccc3C2)O[C@H]1CO	none (no result: RAD54 branch, Yeast UUG start)
CC(C)NC(=O)NCC[C@H]1CC[C@H](NC(=O)Nc2ccccc2)[C@H](CO)O1	none
C[C@@H]1CN([C@H](C)CO)C(=O)c2cc(NS(=O)(=O)c3cn(C)cn3)ccc2O[C@H]1CN(C)C(=O)NC1CCCCC1	none
O=C(NN1C(=O)CSC1=S)C(=O)NN1C(=O)CSC1=S	SIRT5 block 49.8
COc1cccc(S(=O)(=O)Nc2ccc3c(c2)OC[C@H](C)N(Cc2ccccc2F)C[C@H](C)[C@@H](OC)CN(C)C3=O)c1	none (no result: RAD54 branch, Yeast UUG start)
CO[C@@H]1CN(C)C(=O)c2cc(NC(=O)c3ccc(Oc4ccccc4)cc3)ccc2OC[C@H](C)NC[C@H]1C	SIRT5 block 100.0 (no result: Yeast UUG start)
CO[C@H]1CN(C)C(=O)c2cc(NC(=O)c3ccc(Oc4ccccc4)cc3)ccc2OC[C@@H](C)NC[C@@H]1C	none (no result: Yeast UUG start)
CO[C@H]1CN(C)C(=O)c2cc(NS(=O)(=O)c3ccc(Oc4ccccc4)cc3)ccc2OC[C@H](C)NC[C@H]1C	SIRT5 block 27.5
CO[C@H]1CN(C)C(=O)c2cc(NC(=O)c3ccc(-c4ccccc4)cc3)ccc2OC[C@@H](C)NC[C@@H]1C	SIRT5 block 103.1
COc1cccc(S(=O)(=O)Nc2ccc3c(c2)OC[C@@H](C)N(Cc2cc(F)ccc2F)C[C@@H](C)[C@H](OC)CN(C)C3=O)c1	SIRT5 block 20.0
CO[C@H]1CN(C)C(=O)c2cc(NC(=O)c3ccc(-c4ccccc4)cc3)ccc2OC[C@H](C)NC[C@@H]1C	none
COc1ccc(-c2ccc([C@@H]3[C@@H](CO)N4C(=O)CNC[C@@H]34)cc2)cc1	none (no result: RAD52 anneal inh, RAD54 branch, Yeast UUG start)
COc1ccc(S(=O)(=O)N(C)C[C@@H]2Oc3ccc(NC(=O)Cc4ccccc4)cc3CC(=O)N([C@H](C)CO)C[C@H]2C)cc1	none

High-throughput results as filed in PubChem.
